Results taken from patent publication US20060046981A1, “Anti-nonmelanoma carcinoma compounds, compositions, and methods of use thereof” (GILEAD SCIENCES, INC., priority 2003, published 2006).

Test system: SiHa cells
Assay: Antiproliferation assay (7 days, Sulforhodamine B) in SiHa cells
Assay type: cell-based, human
Protocol: Antiproliferation assays measure effect of compounds on proliferation of cultured cells. Cells are cultured for 7 days in the presence of various concentrations of compounds. On the 7th day, cells are stained with dye, and intensity of staining (proportional to cell number) is measured by spectrophotometer.
Cells were detached from culture flasks using trypsin, counted, and plated in 96-well culture plates (250-1000 cells per well, depending on cell type). On the next day (defined as day 0), after cells attached to the bottom of plates, 5-fold serial dilutions of compounds were added in duplicate. No compound and 10 μM colchicine (cell division inhibitor) was added to control wells, which would represent 100% proliferation and 0% proliferation, respectively.
Seven days after addition of compounds, culture plates were treated with 10% trichloroacetic acid at 4° C. for 1 hr, then washed with water. […] This generated purple color that was quantified by measuring the absorbance at 510 nm wavelength, using spectrophotometer.
Cells were detached from culture flasks using trypsin, counted, and plated in 96-well culture plates ([…], depending on cell type). […] Intensity of the color (proportional to cell number) was quantified by measuring the absorbance at 510 nm wavelength, using spectrophotometer. […]

SMILES: COc1cc2c(c(N)c1OC)C(=O)/C(=C\c1cc(C)c(O)c(C)c1)C2 [Indanosine, Indanocine]
- Selectivity (HEL/SiHa): 0.27
